Test results as given in article PMC6436534 (Chemistry (Weinheim an der Bergstrasse, Germany), 2019).

Conditions: traditional octanol water partition coefficient determination

cubyl-warfarin [compound 7]
log P: 4.62
